# Ab-91 heavy chain CDR variants: yeast mating affinities

Reference: Engelhart et al. 2022, doi:10.1038/s41597-022-01779-4. File: FLAb, binding data.

The target is the same throughout: PDVDLGDISGINAS, from the HR2 region of SARS-CoV-2 spike.

The variants keep the light chain, the linker and the frameworks of Ab-91 (scFv order VL, a (GGGGS)3 linker, VH).
VL: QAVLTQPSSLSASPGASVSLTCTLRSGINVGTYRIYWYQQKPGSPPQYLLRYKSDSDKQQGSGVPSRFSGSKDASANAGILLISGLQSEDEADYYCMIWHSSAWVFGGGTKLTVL
VH: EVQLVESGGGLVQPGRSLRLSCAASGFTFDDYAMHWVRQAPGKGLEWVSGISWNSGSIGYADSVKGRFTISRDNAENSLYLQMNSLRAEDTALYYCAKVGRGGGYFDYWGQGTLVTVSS

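The parent was found by panning a naive human phage display library on the peptide. The library (AAYL51) carries one to three amino acid substitutions per variant, with no insertions or deletions. The scFvs were displayed on barcoded MATa yeast, the peptide on MATalpha yeast. After mating in shaken culture at 30 °C for 16 h, diploids were selected and their barcode pairs sequenced. The ratio of observed to expected reads was calibrated, replicate by replicate, on BCL2-family standards whose Kd was known from biolayer interferometry. Mating was done three times.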

Each variant is given by its three heavy chain CDRs, as the data file delimits them; those of the parent are GFTFDDYAMH, GISWNSGSIGYADSVK, VGRGGGYFDY. Affinities are written as log10 Kd with Kd in nM; a lower number is a better binder. Replicates are averaged; those with no signal do not enter the mean. "nd" marks a missing value. The strain was present, yet no cells mated with the target were sequenced in any replicate, which points to weak or no binding. Parent in this assay: reference entry 1.86, copy in this library 0.88. Nonspecific signal, from three strains lacking the peptide, appeared in 21% of pairings of library AAYL51, centred on 4.54 (5% of these signals below 3.26); values are not corrected for it.

CDR-H1	CDR-H2	CDR-H3	mean log10 Kd (nM)	seen in
GFTFKAYAMH	GISWNSGSIGYYDSVK	VGRGGGYFDY	3.33	3/3
GFTFKDYAMH	GISWYSGSIGYADRVK	VGRGGGYFDY	3.79	3/3
GFTFDDYAMH	GISWNSGSIGVADSVK	VGRGEGYVDY	nd	0/3
GFTFDDYAMH	GISWNSGSIGYADSLK	VGRGFGYFDY	3.67	1/3
GFTFDDYAMH	GISWNSGSIGYADSWQ	VGRGWGYFDY	5.63	2/3
GDTFSDYAMH	GISWNSGSIGYADSVK	VGRGGGIFDY	4.40	2/3
GFTFDDYLMH	GISWNSGSISYADSVK	VGRQGGYFDY	4.65	2/3
GFTFDDYAMH	GSAWNSGSIGYADSVK	VGRGGGQFDY	nd	0/3
GFTFDWYAMH	KISWNSGSIGYADYVK	VGRGGGYFDY	nd	0/3
GVTIDDYAME	GISWNSGSIGYADSVK	VGRGGGYFDY	3.58	1/3
GFTFDDYAMH	GISFNSASIGYADSVK	VMRGGGYFDY	4.78	1/3
GFTFDAYAMH	GISWGSGSIGYADSVK	VGRGGRYFDY	2.18	3/3
RFTFDDYAMH	GISWVSGSIGYADSVK	VGRGGGYFYY	nd	0/3
GFTFDDKAMH	GISWNSGSIGYAPSVQ	VGRGGGYFDY	4.68	1/3
GFTFDDYAMH	GISWNSGSAGYADSVK	VGEGGGYLDY	nd	0/3
GFTFHDYAMH	GISWNSGSIGRADSVK	VGRGGGYFDY	nd	0/3
GFTFDDYAFH	GISWNSGSIGYADEVK	VGRGGGYFDW	nd	0/3
GFTYDDYAMH	GISWNSGSIGYADSVK	VRRGGGYGDY	4.33	1/3
GFTFDDYAMH	GISWNSGSIGAADSVK	FGRGEGYFDY	5.87	1/3
VFTFDDYAMW	GISRNSGSIGYADSVK	VGRGGGYFDY	2.71	3/3
GFTFDDYAMH	CISRNSGSIGYADSVK	VGRTGGYFDY	nd	0/3
GFTFEDYAMH	GKSWNSGSIGYADSVK	VGRGVGYFDY	4.17	2/3
GFTFDDTAMH	QISWNSGKIGYADSVK	VGRGGGYFDY	nd	0/3
GFTFDDYAWH	GISWNSGSIGYADSVK	CGQGGGYFDY	nd	0/3
GFTFDDYAMH	GISWNSGSIGYVDSDK	VGRGGGYFAY	4.94	3/3
GFTFDDYAMH	GISWNSRSIGYADSVK	GERGGGYFDY	3.58	1/3
GVTFDDYAMH	GISWNSGSIGYADSVK	VGRGGAYFDY	3.20	1/3
GVTFDDYAMH	GISWESGSIGYADSVK	VGRGGGYFDY	3.76	1/3
GFTFDDVAFH	GISWNSGSIGYADSVK	VGRGCGYFDY	4.30	3/3
GFTFDDYAMH	GISWNSGSDGYADSVK	VGCGGCYFDY	4.27	1/3
GFTFDDYAWH	GISWNSGSIIYADSVK	VGRGGSYFDY	5.11	2/3
GFTFDDYAMS	GISWNSGAIFYADSVK	VGRGGGYFDY	3.63	1/3
HFTFDDYAMH	GISWNSGSIDYADSVK	VGRGGGYFAY	nd	0/3
GHTFVDKAMH	GISWNSGSIGYADSVK	VGRGGGYFDY	4.49	1/3
GFTFDDYGMI	GISWNSGSIGYPDSVK	VGRGGGYFDY	4.87	3/3
GFTFDDSAMH	GTSWNSGSIGYADSVK	VGRGGGYKDY	5.13	1/3
GFTFDLYAMH	GPSWNSGSIGYADSNK	VGRGGGYFDY	nd	0/3
GFTFDDYAMH	YISWNSGSIGYADSVQ	VGRGGGYFKY	nd	0/3
GFTFDWYAMH	GISTNSGSIGYADSVK	VGLGGGYFDY	nd	0/3
GFTFDDYAMH	GISWNRGSIGYADSVK	VGRGGGYFDP	4.00	1/3
GFTFDDYAMH	LISWNSDSIGDADSVK	VGRGGGYFDY	nd	0/3
GFDFDDYAMH	GISWNSGSIGYADYVK	RGRGGGYFDY	4.76	1/3
GFTFDDYAMH	GISWNSGSIFCADSVK	VNRGGGYFDY	nd	0/3
GFLFDDYAWH	GQSWNSGSIGYADSVK	VGRGGGYFDY	5.00	2/3
GFTFDDYAMN	GISWNSGSIGYADSVK	VGRGGQDFDY	4.85	3/3
GFIPDDYIMH	GISWNSGSIGYADSVK	VGRGGGYFDY	nd	0/3

The first 8 variants above that were never detected:

{"CDR-H1": "GFTFDDYAMH", "CDR-H2": "GISWNSGSIGVADSVK", "CDR-H3": "VGRGEGYVDY", "mean log10 Kd (nM)": "nd", "seen in": "0/3"}
{"CDR-H1": "GFTFDDYAMH", "CDR-H2": "GSAWNSGSIGYADSVK", "CDR-H3": "VGRGGGQFDY", "mean log10 Kd (nM)": "nd", "seen in": "0/3"}
{"CDR-H1": "GFTFDWYAMH", "CDR-H2": "KISWNSGSIGYADYVK", "CDR-H3": "VGRGGGYFDY", "mean log10 Kd (nM)": "nd", "seen in": "0/3"}
{"CDR-H1": "RFTFDDYAMH", "CDR-H2": "GISWVSGSIGYADSVK", "CDR-H3": "VGRGGGYFYY", "mean log10 Kd (nM)": "nd", "seen in": "0/3"}
{"CDR-H1": "GFTFDDYAMH", "CDR-H2": "GISWNSGSAGYADSVK", "CDR-H3": "VGEGGGYLDY", "mean log10 Kd (nM)": "nd", "seen in": "0/3"}
{"CDR-H1": "GFTFHDYAMH", "CDR-H2": "GISWNSGSIGRADSVK", "CDR-H3": "VGRGGGYFDY", "mean log10 Kd (nM)": "nd", "seen in": "0/3"}
{"CDR-H1": "GFTFDDYAFH", "CDR-H2": "GISWNSGSIGYADEVK", "CDR-H3": "VGRGGGYFDW", "mean log10 Kd (nM)": "nd", "seen in": "0/3"}
{"CDR-H1": "GFTFDDYAMH", "CDR-H2": "CISRNSGSIGYADSVK", "CDR-H3": "VGRTGGYFDY", "mean log10 Kd (nM)": "nd", "seen in": "0/3"}